Results from ChEMBL document CHEMBL4602617, “Discovery and optimization of heteroaryl piperazines as potent and selective PI3Kδ inhibitors” (Bioorg Med Chem Lett, 2020).

How the values were obtained:
Homo sapiens [1] = organism: Homo sapiens; test: (§1) Selectivity index, ratio IC50 for inhibition of recombinant human full-length N-terminal His6-tagged p110alpha/untagged full-length p85alpha expressed in baculovirus infected Sf21 cells to ratio IC50 for inhibition of recombinant human full-length N-terminal GST-tagged p110delta/untagged full-length p85alpha expressed in baculovirus infected Sf21 cells
Homo sapiens [2] = organism: Homo sapiens; test: as §1, with “p110beta/untagged” for “p110alpha/untagged”
Homo sapiens [3] = organism: Homo sapiens; test: Selectivity index, ratio IC50 for inhibition of recombinant human N-terminal His6-tagged full-length p120gamma expressed in Sf21 insect cells to ratio IC50 for inhibition of recombinant human full-length N-terminal GST-tagged p110delta/untagged full-length p85alpha expressed in baculovirus infected Sf21 cells

Cn1cc(-c2ncc(C#N)c(N3C[C@@H]4C[C@H]3CN4CC3CC3)n2)cn1
Ratio IC50 (Homo sapiens [1]): > 9 | Ratio IC50 (Homo sapiens [2]): 9 | Ratio IC50 (Homo sapiens [3]): 9
